Structures can show the parent of a compound that is named as a salt.
Target: cIAP-1 BIR3 domain (Homo sapiens (Human), UniProt Q13490)
Assay: cIAP-1 in vitro competitive displacement binding assay (fluorescence polarization)
Conditions: AbuRPFK(5&6FAM)-amide probe (Probe B); given as ranges; read-out: IC50 or PI cIAP1

Row | Compound | IC50 [nM]
1 | CCC1(CC)Oc2nc(NC(=O)[C@H](C)N)ccc2N(c2ccc(Cl)cc2)C1=O [Example 45, (S)-2-Amino-N-[1-(4-chloro-phenyl)-3,3-diethyl-2-oxo-2,3-dihydro-1H-pyrido[2,3-b][1,4]oxazin-6-yl]-propionamide hydrochloride] | 10 to 1000
2 | [2H]C([2H])([2H])[C@]([2H])(N)C(=O)Nc1ccc2c(n1)OC(CC)(CC)C(=O)N2c1ccc(Cl)cc1 [Example 46, (S)-2-Amino-N-[1-(4-chloro-phenyl)-3,3-diethyl-2-oxo-2,3-dihydro-1H-pyrido[2,3-b][1,4]oxazin-6-yl]-propionamide (2,3,3,3-d4) hydrochloride] | 10 to 1000

— patent publication US9155743B2, “Bicyclic heterocycle compounds and their uses in therapy” (priority 2011, dated 2015)
